Source: US8304443B2, “Indazole derivatives” (Asahi Kasei Pharma Corporation, priority 2008, dated 2012)

By UniProt entry, the sequences of proteins in these tests, tags left out.
UniProt P35348, whole entry: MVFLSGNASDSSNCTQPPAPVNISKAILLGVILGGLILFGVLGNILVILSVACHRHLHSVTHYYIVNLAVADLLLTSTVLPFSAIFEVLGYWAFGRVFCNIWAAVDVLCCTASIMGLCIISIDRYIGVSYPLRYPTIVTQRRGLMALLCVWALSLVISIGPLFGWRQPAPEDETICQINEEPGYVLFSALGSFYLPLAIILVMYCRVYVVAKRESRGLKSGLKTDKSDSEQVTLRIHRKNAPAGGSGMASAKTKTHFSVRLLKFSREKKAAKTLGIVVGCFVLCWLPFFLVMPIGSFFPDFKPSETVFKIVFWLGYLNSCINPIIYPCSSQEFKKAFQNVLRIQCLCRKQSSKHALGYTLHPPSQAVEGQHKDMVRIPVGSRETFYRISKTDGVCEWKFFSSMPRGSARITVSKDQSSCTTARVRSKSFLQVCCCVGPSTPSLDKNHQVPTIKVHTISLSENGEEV
UniProt P35368, whole entry: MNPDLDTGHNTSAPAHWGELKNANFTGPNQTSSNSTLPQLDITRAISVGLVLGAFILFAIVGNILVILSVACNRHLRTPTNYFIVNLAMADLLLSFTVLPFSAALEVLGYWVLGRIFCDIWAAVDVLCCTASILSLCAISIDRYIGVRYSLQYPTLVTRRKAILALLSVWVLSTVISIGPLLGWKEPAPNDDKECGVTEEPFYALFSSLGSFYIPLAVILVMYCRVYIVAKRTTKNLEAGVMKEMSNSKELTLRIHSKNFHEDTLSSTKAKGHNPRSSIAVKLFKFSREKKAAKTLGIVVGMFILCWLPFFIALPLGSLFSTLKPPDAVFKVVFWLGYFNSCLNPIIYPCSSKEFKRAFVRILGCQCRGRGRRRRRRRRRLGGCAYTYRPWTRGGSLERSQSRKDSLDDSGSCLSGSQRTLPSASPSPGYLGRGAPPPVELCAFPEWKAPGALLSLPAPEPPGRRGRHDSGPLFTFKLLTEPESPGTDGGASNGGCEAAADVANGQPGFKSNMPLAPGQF
UniProt P25100, whole entry: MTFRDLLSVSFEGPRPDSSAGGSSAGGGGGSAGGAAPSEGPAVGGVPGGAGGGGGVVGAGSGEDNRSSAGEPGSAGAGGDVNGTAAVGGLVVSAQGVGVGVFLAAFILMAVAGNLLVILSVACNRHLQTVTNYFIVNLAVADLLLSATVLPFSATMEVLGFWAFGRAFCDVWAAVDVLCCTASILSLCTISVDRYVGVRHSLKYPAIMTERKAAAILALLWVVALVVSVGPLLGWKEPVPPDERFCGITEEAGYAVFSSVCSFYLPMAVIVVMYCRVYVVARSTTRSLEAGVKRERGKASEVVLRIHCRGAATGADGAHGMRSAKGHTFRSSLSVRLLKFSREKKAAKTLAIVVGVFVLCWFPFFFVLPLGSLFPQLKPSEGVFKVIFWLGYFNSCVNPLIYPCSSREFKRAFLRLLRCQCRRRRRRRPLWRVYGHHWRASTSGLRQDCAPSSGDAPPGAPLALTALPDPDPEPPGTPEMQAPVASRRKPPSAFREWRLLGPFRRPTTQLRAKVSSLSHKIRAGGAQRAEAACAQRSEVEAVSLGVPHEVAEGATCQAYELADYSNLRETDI
UniProt P13945, whole entry: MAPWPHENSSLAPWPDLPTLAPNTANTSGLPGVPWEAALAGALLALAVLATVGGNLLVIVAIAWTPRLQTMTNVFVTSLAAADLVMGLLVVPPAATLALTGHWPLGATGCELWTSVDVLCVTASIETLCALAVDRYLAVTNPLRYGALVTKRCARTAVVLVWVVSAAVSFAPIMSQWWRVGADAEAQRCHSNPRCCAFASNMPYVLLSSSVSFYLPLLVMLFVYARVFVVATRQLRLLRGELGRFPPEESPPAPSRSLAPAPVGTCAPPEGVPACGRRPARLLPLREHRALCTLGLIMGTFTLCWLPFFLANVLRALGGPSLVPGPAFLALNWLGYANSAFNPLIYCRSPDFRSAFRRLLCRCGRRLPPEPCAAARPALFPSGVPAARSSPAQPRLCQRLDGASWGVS

Assays:
[1] = molecular target: human α1A adrenergic receptor (Homo sapiens, UniProt P35348); assay: Test example 4: human α1A adrenergic receptor agonist activity (Ca flux, Fura-2); format: cell-based
[2] = molecular target: human α1B adrenergic receptor (Homo sapiens, UniProt P35368); assay: Test example 5: human α1B adrenergic receptor agonist activity (SRE-luciferase); conditions: HEK293 cells, luciferase reporter
[3] = molecular target: human α1D adrenergic receptor (Homo sapiens, UniProt P25100); assay: Test example 6: human α1D adrenergic receptor agonist activity (SRE-luciferase); conditions: HEK293 cells, luciferase reporter
[4] = molecular target: human β3 adrenergic receptor (Homo sapiens, UniProt P13945); assay: Test example 1-B: human β3 adrenergic receptor agonist activity (cAMP-Screen, 96-well); format: cell-based; conditions: read-out: β3 receptor EC50, Table 4, CHO cells with human β3 gene

α1A receptor I.A. ([1]; Table 3, maximum response to norephinephrine taken as 100%): 60%
α1A receptor I.A. ([1]; Table 4, maximum response to norephinephrine taken as 100%): 60%
α1B agonist activity [2]: no α1B agonist activity
α1D agonist activity [3]: no α1D agonist activity
EC50 [4]: 0.04 µM
SMILES: COc1n[nH]c2cc(OCCNC[C@H](O)c3cccc(NS(C)(=O)=O)c3)ccc12
